Experimental findings from article PMC7278359, “Small molecule AX-024 reduces T cell proliferation independently of CD3ϵ/Nck1 interaction, which is governed by a domain swap in the Nck1-SH3.1 domain” (The Journal of Biological Chemistry, 2020) are described below.

Assay [1] has as its target Nck1-SH3.1 (residues 4–59) (human) (UniProt P16333). In words: SEC; monomer to dimer; 1.14 mM Nck1-SH3.1 (4–59) dimer, after overnight incubation at 37 °C; Superdex 75 Increase 3.2/300; 25 mM HEPES/NaOH pH 7.8, 150 mM NaCl; constant from integrated signals, equilibrium assumed. (In general: Size exclusion chromatography separates by hydrodynamic size, large species first.)

Assay [2] shares this target. In words: AUC; multispeed sedimentation equilibrium; Nck1-SH3.1 (4–59) dimer peak from SEC at 10 and 50 μM; 20 °C; 25 mM HEPES/NaOH pH 7.4, 150 mM NaCl.
Assay [3] has the same target. In words: AUC; multispeed sedimentation equilibrium; 50 μM dimeric Nck1-SH3.1 (4–59) preincubated at 42 °C for 24 h; measured at 20 °C; 25 mM HEPES/NaOH pH 7.4, 150 mM NaCl; monomer-dimer self-association model (2 M ⇄ D).

In the case of “Nck1-SH3.1 (residues 4–59) (from UniProt P16333 4-59) (domain or fragment)”, in assay [1], the Ka was 4150 M⁻¹ and the Kd was 180 µM. For the same substance, the stoichiometry N in assay [2] came out at 2. In assay [3], this substance returned a Ka of 3380 M⁻¹ and a Kd of 300 µM.

In general, Kd refers to a measure of binding affinity in units of concentration. A higher Kd goes with weaker binding. The stoichiometry N is a count of units in the complex or per binding partner.
